Results: patent US11266655B2, “Methods and compositions for treating urea cycle disorders” (Camp4 Therapeutics Corporation, priority 2019, dated 2022)
Like-named read-outs stand apart in the source and are kept apart here.

Tests used:
[1] = system: SLC25A15; assay: RNA-seq of compound-treated primary human hepatocytes, SLC25A15 expression; type: cell-based
[2] = system: ARG1; assay: RNA-seq of compound-treated primary human hepatocytes, ARG1 expression; type: cell-based; details: for Fold change (Log 2) vs untreated, ARG1 expression: primary human hepatocytes, RNA-seq (Table 7)
[3] = system: OTC; assay: RNA-seq of compound-treated primary human hepatocytes, OTC expression; type: cell-based
[4] = system: ASL; assay: RNA-seq of compound-treated primary human hepatocytes, ASL expression; type: cell-based
[5] = system: urea cycle genes; assay: RNA-seq of primary human hepatocytes, compounds that modulate multiple urea cycle-related genes; type: cell-based
[6] = system: ASS1; assay: RNA-seq of compound-treated primary human hepatocytes, ASS1 expression; type: cell-based; details: RNA-seq (Table 4)
[7] = system: NAGS; type: cell-based, human
[8] = system: CPS1; assay: RNA-seq of compound-treated primary human hepatocytes, CPS1 expression; type: cell-based
[9] = primary human hepatocytes, RNA-seq
[10] = primary human hepatocytes, RNA-seq, urea cycle-related genes significantly increased (Table 10)

Compound: CC1(COc2ccc3c(c2)ncn3-c2ccc3cccc(N4CCC(N)CC4)c3n2)COC1 [Crenolanib]
- Increase in SLC25A15 gene expression (qualitative) [1]: greatest increase
- increase in ARG1 gene expression (Tables 17, 18, FIG. 9, 10) [2]: greatest increase
- increase in OTC gene expression (Table 14, FIG. 6) [3]: significant increase
- increase in ASL gene expression (Table 25, FIG. 17) [4]: greatest increase
- Up-regulated Genes [5]: ASS1, ASL, OTC, ARG1
- number of urea cycle genes whose expression was significantly up-regulated [5]: four

Compound: CC[C@@H]1/C=C/C=C/C[C@H](C)[C@H](O)[C@](C)(O)C(=O)[C@H](C)[C@@H](O)[C@H](C)C(=O)[C@H](C)[C@@H](O)[C@H](C)/C=C/C(=O)O[C@H]2[C@@H](C)[C@@H](CC1)O[C@@]1(CC[C@@H](C)[C@@H](C[C@H](C)O)O1)[C@@H]2C [Oligomycin A]
- Fold change (Log 2) vs untreated, ARG1 expression [2]: 0.75 Log 2
- ASL expression, Fold change (Log 2) vs untreated [4, 9]: 0.84 Log 2

Compound: C1=C/COCc2cc(ccc2OCCN2CCCC2)Nc2nccc(n2)-c2cccc(c2)COC/1 [Pacritinib (SB1518), Pacritinib]
- number of urea cycle genes whose expression was significantly up-regulated [5, 9]: five
- Up-regulated Genes [5, 10]: CPS1, ASS1, ASL, OTC, ARG1

Compound: BMP2: Bone morphogenetic protein 2 (BMP2) belongs to the TGF-B superfamily
- Fold change (Log 2) vs untreated, ASS1 expression [6]: 0.75 Log 2
- Fold change (Log 2) vs untreated, NAGS expression [7]: 0.6 Log 2
- Fold change (Log 2) vs untreated, ARG1 expression [2]: 0.81 Log 2
- number of urea cycle genes whose expression was significantly up-regulated [5, 9]: four
- Up-regulated Genes [5, 10]: ASS1, CPS1, NAGS, ARG1
- CPS1 expression, Fold change (Log 2) vs untreated [8]: 1.31 Log 2
